Values quoted from earlier work as cited in article PMC13170487.
Several values for one entry are separate records, joined by “and”; a condition that tells them apart may be missing. Identical values can stand only once.

Tests used:
[1] = target: CFTR C-terminus (Homo sapiens)

In the case of CAL PDZ (from UniProt Q9HD26), the Kd [1] is given as 420 µM and 590 µM and the Ki (iCAL36) is given as 22.6 µM.
